We go through two molecules from the CombiSolv-Exp solvation set (Vermeire and Green 2021).

The data set is described as follows: solvent given as SMILES.

On to `CCl`, for which the “solvation free energy, 298 K” value runs as follows: (in Brc1ccccc1) -2.17 kcal/mol; (in CC(C)=O) -2.52 kcal/mol; (in CCCCCCCCO) -1.9 kcal/mol; (in CN(C)C=O) -2.37 kcal/mol; (in COC(C)=O) -2.47 kcal/mol; (in ClC(Cl)(Cl)Cl) -2.2 kcal/mol. In addition, the “solvation free energy, 298 K” value (in ClC(Cl)Cl) was -2.48 kcal/mol; the “solvation free energy, 298 K” value (in Clc1ccccc1) was -2.21 kcal/mol; the “solvation free energy, 298 K” value (in Ic1ccccc1) is -2.1 kcal/mol; the “solvation free energy, 298 K” value (in N#Cc1ccccc1) was -2.19 kcal/mol; the “solvation free energy, 298 K” value (in O) was -0.55 kcal/mol.
Regarding `CCCCOCCCC`, the “solvation free energy, 298 K” value reads like this: (in C1CCOC1) -6.13 kcal/mol; (in CCCCCC) -5.91 kcal/mol; (in CCCCCCCC) -5.78 kcal/mol; (in CCCCCCCCCCCCCCCC) -5.39 kcal/mol; (in CCCCCCCCO) -5.33 kcal/mol; (in CCCCO) -5.35 kcal/mol. In addition, the “solvation free energy, 298 K” value by setting is: (in CO) -4.97 kcal/mol; (in ClC(Cl)(Cl)Cl) -6.28 kcal/mol; (in ClCCCl) -5.98 kcal/mol; (in O) -0.8 kcal/mol.
